Protein sequences, listed by entry. Tags and fused reporters are not part of them.
UniProt P20309, whole entry: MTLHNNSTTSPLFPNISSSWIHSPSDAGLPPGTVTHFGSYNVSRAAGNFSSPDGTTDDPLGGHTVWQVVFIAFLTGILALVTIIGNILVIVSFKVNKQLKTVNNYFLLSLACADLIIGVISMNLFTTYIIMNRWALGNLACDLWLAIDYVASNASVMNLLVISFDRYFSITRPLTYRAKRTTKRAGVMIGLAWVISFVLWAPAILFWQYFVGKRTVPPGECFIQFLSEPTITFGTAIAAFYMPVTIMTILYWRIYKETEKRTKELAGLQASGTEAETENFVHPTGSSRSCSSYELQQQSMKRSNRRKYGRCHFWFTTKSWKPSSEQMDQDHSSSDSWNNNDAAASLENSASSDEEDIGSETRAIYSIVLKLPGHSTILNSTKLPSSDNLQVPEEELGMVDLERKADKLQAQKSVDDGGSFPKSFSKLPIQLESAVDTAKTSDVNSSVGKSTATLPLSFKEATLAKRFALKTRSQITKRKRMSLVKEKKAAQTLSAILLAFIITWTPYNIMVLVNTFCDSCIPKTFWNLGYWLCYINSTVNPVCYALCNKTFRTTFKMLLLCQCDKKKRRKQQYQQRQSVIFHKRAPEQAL

According to ChEMBL document CHEMBL1142444 (Bioorg Med Chem Lett, 2008):

Biological target: Muscarinic acetylcholine receptor M3 (Homo sapiens, UniProt P20309)
Assay: Agonist activity at muscarinic M3 receptor
Type: functional

CCOC(=O)N1CCC(N2CCC(n3c(=O)[nH]c4ccccc43)CC2)CC1
EC50: 113 nM
